# S100A4 inh HTS: blocks human S100A4 binding to myosin IIA peptide; S100A4/TAMRA-MyoIIA peptide fluorescence polarization; inhibition, % at 10.7 µM; AID 652163; actives 0.14% (n = 360,000);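 active = mean inhibition of at least 70% across replicates, with every replicate also reaching that level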
#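 System – human S100A4 monomer protein, biochemical binding assay · Buffer or medium – Calcium-containing HEPES buffer, pH 7.2 · Timing – 5 min between mix addition and reading · Also added – TAMRA-labelled myosin IIA heavy-chain peptide probe, 5 nM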
# ERp5 inh: blocks human ERp5 reductase activity on insulin. ERp5 insulin aggregation, absorbance 650 nm, 90 min. Q15084. inhibition, % at 9.99 µM. actives 0.05% (n = 350,000). AID 651711;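 active = mean replicate inhibition above about 25%, with every replicate also reaching it, limit read from the data, passing the limit was not always enough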
# PDI turbidity: inhibitors of human protein disulfide isomerase; P07237; PDI insulin aggregation turbidity, A650, 90 min; inhibition, % at 10 µM; actives 0.052% (n = 350,000); AID 588391;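 active = mean inhibition across replicates of 30% or more, whatever share of single replicates reach that level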
# Yeast UUG start: modulators of start codon recognition fidelity in yeast; AID 602363; activity score, % at 18.7 µM; S. cerevisiae UUG-firefly luciferase reporter, luminescence/redox ratio; actives 0.13% (n = 350,000);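 active = replicate mean at a twofold rise or more, about +100% in these data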;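 note: firefly luciferase made from a UUG start codon reports start codon fidelity; reporter light over untreated wells divided by growth signal over untreated wells; some hits fall short of that in this replicate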
# FGF22 binding-1: shifts melting point of recombinant human FGF22. recombinant FGF22 thermal shift, SYPRO orange fluorescence; percent of sucrose octasulfate shift, DMSO zero. actives 1.5% (n = 340,000). activity (Tm shift, normalised), % at 9.99 µM;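 active = mean Tm shift, scaled 0 neutral to 100 positive control, at about 1.3% or above, every replicate too, limit read from the data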
# SIRT5 inh: sirtuin-5 (human) deacylase inhibition; Purified SirT5, succinyl-peptide AMC, trypsin-coupled fluorescence; actives 1.1% (n = 330,000); AID 652115; inhibition, % at 15 µM; in the data active = inhibition above about 15%
# FGF22 binding-2: FGF22 (human) binding in thermal shift. shares compounds with FGF22 binding-1. recombinant FGF22 thermal shift, SYPRO orange fluorescence. actives 2% (n = 1,000). thermal shift activity, °C (ΔTm) at 38 µM;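 active = fitted rise in melting shift crosses a set limit at or below the top valid dose tested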
# FGF22 TSA: FGF22 (human) binding by thermal shift | 50 tested, under 10 active | Thermal shift assay, SYPRO orange, melting temperature shift | Tm shift (activity), % at 38 µM | AID 743017 | shares compounds with FGF22 binding-1;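 active = compounds whose fitted dose curve of melting temperature shift rises past a set threshold within the tested doses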
# SYPRO no-protein: counter-screen for FGF22 binders: compound-only thermal shift, no protein | AC50, µM (doses to about 38 µM) | actives 2% (n = 1,000) | compound-only SYPRO orange thermal shift counter-screen | shares compounds with FGF22 binding-1;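 active = rising signal whose fitted curve reaches the 0.54 level within the top valid dose, showing a melting point, actives reach about 13 µM in these data; inactive = the rest, including activity in the opposite direction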; also: value is where the raw curve crosses a fixed level and not half-maximal
# Active calls of the source: *; i = inactive; x = no result; [ ] = remark or other dose. A selection: hits, their analogues and other compounds. The true share with any hit is near 2.2%.
SMILES,S100A4 inh HTS,ERp5 inh,PDI turbidity,Yeast UUG start,FGF22 binding-1,SIRT5 inh,FGF22 binding-2,SYPRO no-protein,others
Cc1noc(C)c1NC(=O)Nc1ccc2c(c1)C(=O)N(C)[C@H]1CC[C@H](CC(=O)N[C@@H]3CCN(Cc4ccccc4)C3)O[C@@H]1CO2,8,1,x,x,1.8*,0,-0.025,i,
Cc1noc(C)c1NC(=O)Nc1ccc2c(c1)CC(=O)N([C@@H](C)CO)C[C@@H](C)[C@H](CN(C)Cc1ccc3c(c1)OCO3)O2,-7,-5,x,-5,0,0,x,x,
C[C@@H]1CN([C@@H](C)CO)C(=O)c2cc(NS(=O)(=O)c3ccc(Cl)cc3)ccc2O[C@@H]1CN(C)Cc1ccc(C(F)(F)F)cc1,x,x,x,-1,x,x,x,x,
O=C(N/N=C/c1cccc(O)c1)c1cc(-c2ccc3c(c2)OCO3)n[nH]1,-1,1,-2,x,1.9*,1,0.085,i,
COC(=O)Cc1n[nH]c(=O)c2ccccc12,5,5,-5,-17,12*,1,-0.025,i,
C[C@H]1CN([C@@H](C)CO)S(=O)(=O)c2ccc(C#Cc3ccccc3F)cc2O[C@H]1CN(C)C(=O)Cc1cccnc1,-3,-2,x,-7,5.9*,11,0.09[42 µM],i,
C[C@@H]1CN([C@@H](C)CO)S(=O)(=O)c2ccc(C#Cc3ccccc3F)cc2O[C@H]1CN(C)C(=O)Cc1cccnc1,-8,0,x,4,-1,5,x,x,
C[C@H]1CN([C@@H](C)CO)S(=O)(=O)c2ccc(C#Cc3ccccc3F)cc2O[C@@H]1CN(C)C(=O)Cc1cccnc1,2,1,x,25,8.3*,2,0.11[42 µM],i,
Cc1noc(C)c1S(=O)(=O)Nc1ccc2c(c1)C(=O)N([C@H](C)CO)C[C@@H](C)[C@H](CN(C)Cc1ccncc1)OCCCC[C@@H](C)O2,-14,2,x,-9,0,-3,x,x,
CCOC(=O)c1ccc(S(=O)(=O)NNS(=O)(=O)c2ccc(C)cc2)cc1,-2,2,18,-13,0,-2,x,x,
CCOC(=O)c1ccc(S(=O)(=O)Nc2cc(C(=O)O)ccc2Cl)cc1,16,-1,3,x,2.2*,-1,0.053,i,
COc1cccc(C#Cc2ccc([C@@H]3[C@H](CO)N4C(=O)CN(C(=O)C5CC5)C[C@@H]34)cc2)c1,0,-6,x,x,x,0,x,x,
O=C(Nc1nccs1)C1CC(=O)N(c2ccc(F)cc2)C1 (stereo not drawn),-6,-5,-5,x,1.4*,-6,-0.036,i,FGF22 TSA=0
Cc1noc(C)c1S(=O)(=O)Nc1ccc2c(c1)CC(=O)N([C@@H](C)CO)C[C@H](C)[C@@H](CN(C)S(C)(=O)=O)O2,x,x,x,-8,0,x,x,x,
CCCn1c(CCC(=O)O)nc2cc(S(=O)(=O)N3CCCC3)ccc21,-47,-3,-1,0,30*,-1,0.088,i,
OC[C@H]1[C@H](c2ccc(-c3cccnc3)cc2)[C@@H]2CN(Cc3ccccn3)CCCCN12,x,0,x,-52,x,-2,x,x,
OC[C@H]1[C@@H](c2ccc(-c3cccnc3)cc2)[C@H]2CN(Cc3ccccn3)CCCCN21,1,0,x,-38,1.7*,-1,-0.064,i,
OC[C@@H]1[C@@H](c2ccc(-c3cccnc3)cc2)[C@H]2CN(Cc3ccccn3)CCCCN12,x,x,x,-48,1.3*,x,0.051,i,
CO[C@H]1CN(C)C(=O)c2ccc(NC(=O)CC(F)(F)F)cc2OC[C@@H](C)N(CC2CC2)C[C@H]1C,5,-7,x,x,0,1,x,x,
COc1cccc(NC(=O)CN2CCN(S(=O)(=O)c3ccc(F)cc3)CC2)c1,-1,2,-8,-40,28*,-1,0.21,i,

# Quoted at random: three entries already listed
SMILES,S100A4 inh HTS,ERp5 inh,PDI turbidity,Yeast UUG start,FGF22 binding-1,SIRT5 inh,FGF22 binding-2,SYPRO no-protein,others
OC[C@@H]1[C@@H](c2ccc(-c3cccnc3)cc2)[C@H]2CN(Cc3ccccn3)CCCCN12,x,x,x,-48,1.3*,x,0.051,i,
O=C(N/N=C/c1cccc(O)c1)c1cc(-c2ccc3c(c2)OCO3)n[nH]1,-1,1,-2,x,1.9*,1,0.085,i,
COc1cccc(NC(=O)CN2CCN(S(=O)(=O)c3ccc(F)cc3)CC2)c1,-1,2,-8,-40,28*,-1,0.21,i,

# Bioassay records deposited in PubChem BioAssay by Broad Institute.
